# Columns and labels:
# [1] = Selectivity ratio of IC50 for rat liver DHFR to IC50 for Pneumocystis carinii DHFR
# Dihydrofolate reductase = target: T1, Dihydrofolate reductase (Mycobacterium avium, UniProt O30463)
# T1 sequence (O30463 whole entry): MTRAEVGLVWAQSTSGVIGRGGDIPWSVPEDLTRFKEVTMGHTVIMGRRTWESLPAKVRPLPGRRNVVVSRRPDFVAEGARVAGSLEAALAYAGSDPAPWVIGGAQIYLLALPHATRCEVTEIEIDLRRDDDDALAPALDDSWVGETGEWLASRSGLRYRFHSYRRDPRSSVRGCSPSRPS
Compound,Ratio IC50 [1],IC50 (Dihydrofolate reductase)
COc1ccc(OC)c(Sc2[nH]c3nc(N)nc(N)c3c2C)c1,0.5,–
CCc1c(Sc2ccccc2)[nH]c2nc(N)nc(N)c12,–,0.88 µM

# From ChEMBL document CHEMBL1145401, “Design and synthesis of classical and nonclassical 6-arylthio-2,4-diamino-5-ethylpyrrolo[2,3-d]pyrimidines as antifolates” (J Med Chem, 2007)
